# Values of other authors in publication PMC3780559 (MedChemComm, 2013).
# System: STAT3
# Details: cited from earlier work
compound,measurement,value
Cc1ccc(S(=O)(=O)OCC(=O)Nc2ccc(C(=O)O)c(O)c2)cc1 [Compound S3I-201],STAT3:STAT3 complex formation and STAT3 DNA-binding and transcriptional activities,inhibited
